Source: patent US20190055316A1 (published 2019)

Assays:
Test in all cases: on-cell affinity (flow cytometry); transfected 293T cells
aMSLN 2.69.2HL-BiTE = biological target: aMSLN 2.69.2HL-BiTE
aMSLN 2.37HL-BiTE = biological target: aMSLN 2.37HL-BiTE
aMSLN 1.33HL-BiTE = biological target: aMSLN 1.33HL-BiTE

Kd (aMSLN 2.69.2HL-BiTE): 2.19 nM
Kd (aMSLN 2.37HL-BiTE): 11.7 nM
Kd (aMSLN 1.33HL-BiTE): 8.15 nM
B1: Cyno MSLN (other)
chain: MALPMARPLSGSCGTPALGSLLFLLFSLGWVQPSRVLAGETRQEAAPLDGILTNAPDIASLSPRQLLGFTCVEVSGLSTELVQELAVALGQKNVKLSAEQLRCLAHRLSEPPEDLDALPLDLLLFLKQASVQGVRGSLLSEADVRALGGLACDLPGRFVAESAEVVLPRLVRCLGPLDQDQQEAARAALQRGGPPYGPPSTWSISTLDDLQSLLPVLGQPVIHSIPQGILAAWRQRSSRDPSWQQPEQTVLRPRFRRDVERTTCPPEKEVHEIDENLIFYKKRELEACVDAALLAAQMDRVDAIPFTYEQLDVLKHKLDELYPQGYPESVIRHLGHLFLKMSPEDIRKWNVTSLETLKALLKVSKGHEMSAQVATLIDRVVVGRGQLDKDTADTLTAFCPGCLCSLSPERLRSVPPSVIGAVRPQDLDTCGPRQLDVLYPKARLAFQNMSGSEYFVKIRPFLGGAPTEDLKALSQQNVSMDLATFMKLRREAVLVGRAGGGASGGGDNRGREGV
